Source: PubChem BioAssay (NCI)
Some of these compounds have results that are not shown, active ones among them.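 Cultured in 96-well plates, cells were exposed to test compound for 48 hours across five concentrations. Here, GI50 denotes the concentration required for 50% inhibition of growth. At the TGI there is no net growth.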

How the values were obtained:
Assay in all cases: DTP human tumour cell line panel, 48 h
786-0 renal = test system: 786-0 renal
A549 NSCLC = test system: A549 NSCLC
ACHN renal = test system: ACHN renal
BT-549 breast = test system: BT-549 breast
CAKI-1 renal = test system: CAKI-1 renal
CCRF-CEM leukemia = test system: CCRF-CEM leukemia
COLO 205 colon = test system: COLO 205 colon
DU-145 prostate = test system: DU-145 prostate
EKVX NSCLC = test system: EKVX NSCLC
HCC-2998 colon = test system: HCC-2998 colon
HCT-116 colon = test system: HCT-116 colon
HCT-15 colon = test system: HCT-15 colon
HL-60(TB) leukemia = test system: HL-60(TB) leukemia
HOP-62 NSCLC = test system: HOP-62 NSCLC
HT29 colon = test system: HT29 colon
IGROV1 ovarian = test system: IGROV1 ovarian
K-562 leukemia = test system: K-562 leukemia
KM12 colon = test system: KM12 colon
LOX IMVI melanoma = test system: LOX IMVI melanoma
M14 melanoma = test system: M14 melanoma
MALME-3M melanoma = test system: MALME-3M melanoma
MCF7 breast = test system: MCF7 breast
MDA-MB-231 breast = test system: MDA-MB-231 breast
MDA-MB-435 = test system: MDA-MB-435
MDA-N = test system: MDA-N
MOLT-4 leukemia = test system: MOLT-4 leukemia
NCI-H226 lung = test system: NCI-H226 lung

For `C=C(C)C#CC(O)(C(=O)OC1C2CCN(CC2)C1C)c1ccccc1` (stereo not drawn), the GI50 (786-0 renal) was greater than 100 µM, the TGI (786-0 renal) was greater than 100 µM and the GI50 (A549 NSCLC) was greater than 100 µM. For the same compound, the TGI (A549 NSCLC) was greater than 100 µM, the GI50 (ACHN renal) was greater than 100 µM and the TGI (ACHN renal) was greater than 100 µM. The GI50 (BT-549 breast) was greater than 100 µM, the TGI (BT-549 breast) was greater than 100 µM and the GI50 (CAKI-1 renal) was 90.6 µM. For the same compound, the TGI (CAKI-1 renal) was greater than 100 µM, the GI50 (CCRF-CEM leukemia) was greater than 100 µM and the TGI (CCRF-CEM leukemia) was greater than 100 µM. The GI50 (COLO 205 colon) was greater than 100 µM, the TGI (COLO 205 colon) was greater than 100 µM and the GI50 (DU-145 prostate) was greater than 100 µM. It also gave a TGI (DU-145 prostate) greater than 100 µM, a GI50 (EKVX NSCLC) greater than 100 µM and a TGI (EKVX NSCLC) greater than 100 µM. It also gave a GI50 (HCC-2998 colon) greater than 100 µM, a TGI (HCC-2998 colon) greater than 100 µM and a GI50 (HCT-116 colon) greater than 100 µM. For the same compound, the TGI (HCT-116 colon) was greater than 100 µM, the GI50 (HCT-15 colon) was greater than 100 µM and the TGI (HCT-15 colon) was greater than 100 µM. For the same compound, the GI50 (HL-60(TB) leukemia) was greater than 100 µM, the TGI (HL-60(TB) leukemia) was greater than 100 µM and the GI50 (HOP-62 NSCLC) was greater than 100 µM. For the same compound, the TGI (HOP-62 NSCLC) was greater than 100 µM, the GI50 (HT29 colon) was greater than 100 µM and the TGI (HT29 colon) was greater than 100 µM. The GI50 (IGROV1 ovarian) was greater than 100 µM, the TGI (IGROV1 ovarian) was greater than 100 µM and the GI50 (K-562 leukemia) was greater than 100 µM. For the same compound, the TGI (K-562 leukemia) was greater than 100 µM, the GI50 (KM12 colon) was greater than 100 µM and the TGI (KM12 colon) was greater than 100 µM. The GI50 (LOX IMVI melanoma) was greater than 100 µM, the TGI (LOX IMVI melanoma) was greater than 100 µM and the GI50 (M14 melanoma) was greater than 100 µM. The TGI (M14 melanoma) was greater than 100 µM, the GI50 (MALME-3M melanoma) was greater than 100 µM and the TGI (MALME-3M melanoma) was greater than 100 µM. The GI50 (MCF7 breast) was greater than 100 µM, the TGI (MCF7 breast) was greater than 100 µM and the GI50 (MDA-MB-231 breast) was greater than 100 µM. For the same compound, the TGI (MDA-MB-231 breast) was greater than 100 µM, the GI50 (MDA-MB-435) was greater than 100 µM and the TGI (MDA-MB-435) was greater than 100 µM. It also gave a GI50 (MDA-N) greater than 100 µM, a TGI (MDA-N) greater than 100 µM and a GI50 (MOLT-4 leukemia) greater than 100 µM. For the same compound, the TGI (MOLT-4 leukemia) was greater than 100 µM and the GI50 (NCI-H226 lung) was greater than 100 µM.
